The numbers were not newly measured in paper PMC12595476, “FibrilPaint to determine the length of Tau amyloids in fluids” (Proceedings of the National Academy of Sciences of the …, 2025), which cites them from elsewhere.

The subject of this series is Amyloid-β (Aβ) plaques. The conditions noted are these: in words; cited from earlier work. From the text: The formation of amyloid fibrils is one of the earliest pathological hallmarks of neurodegenerative diseases ([3], [6], [12]–[15]). Recently, the antibodies Aducanumab and Lecanemab have been approved to target Amyloid-β (Aβ) plaques in the brain, aiming to slow down the progression of the disease and improve cognitive function ([16], [17]). In AD, Aβ aggregation outside the cell precedes Tau aggregation inside the cell ([4], [13], [18]).

Consider “Aducanumab: antibody approved to target Amyloid-β (Aβ) plaques [reference compound]”, for which the clinical effect entry is “modest” and the risks result is given as “significant risks involved”.
